## Antibody variant affinities, Ab-91 heavy chain, assay 2

The measurements come from Engelhart et al. 2022 (doi:10.1038/s41597-022-01779-4) through the FLAb antibody collection.

Target: peptide PDVDLGDISGINAS, taken from heptad repeat 2 (HR2) of SARS-CoV-2 spike.

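Phage display of a naive human antibody library on the peptide gave the parent. The library (AAYL51) carries one to three amino acid substitutions per variant, with no insertions or deletions. The scFvs were displayed on barcoded MATa yeast, the peptide on MATalpha yeast. Mating (16 h, 30 °C) was followed by selection of diploids and sequencing of their barcodes. A regression on co-assayed BCL2-family reference pairs converts the normalised counts of each replicate to an apparent Kd. There are three technical replicates.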

The variants keep the light chain, the linker and the frameworks of Ab-91 (scFv order VL, a (GGGGS)3 linker, VH).
VL: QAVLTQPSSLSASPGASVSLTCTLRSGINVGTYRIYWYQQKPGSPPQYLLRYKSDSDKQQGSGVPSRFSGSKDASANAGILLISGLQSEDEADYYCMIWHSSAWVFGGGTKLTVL
VH: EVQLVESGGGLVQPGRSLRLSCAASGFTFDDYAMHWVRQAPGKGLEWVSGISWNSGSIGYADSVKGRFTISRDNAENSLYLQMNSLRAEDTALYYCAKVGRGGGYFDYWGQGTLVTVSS

Each variant is given by its three heavy chain CDRs, as the data file delimits them; those of the parent are GFTFDDYAMH, GISWNSGSIGYADSVK, VGRGGGYFDY.
Every variant below is changed at S52 of the VH (sequential numbering).
The read-out is the apparent dissociation constant on a log10 scale (nM): the lower, the stronger.
A mean of the replicates is given; it leaves out those without a signal.
An entry "nd" has no value in the source: the pair was not observed among the diploids in that replicate. This suggests poor binding but is not conclusive.
For reference, the parent read 1.86 as the reference entry and 0.88 as a member of this library.

* GFTFDDYGMH | GICWNSGSIGYAPSVK | VGRGGGYFDY: 5.36, nd, nd (controls 1 of 9)
* GFTFDGDAMH | GIRWNSGSIGYADSVK | VGRGGGYFDY: 5.03, nd, nd (controls 1 of 9)
* GFTFDDYAMH | GIHWNSGSIGYADSVK | VVRGGGYFDY: nd, nd, 5.20 (controls 1 of 9)
* GLTFDDYAMH | GITWNSGSIGYAFSVK | VGRGGGYFDY: nd, 5.09, nd (controls 6 of 9)
* GFPFDDYAMH | GIQWNSGSIGYADSVK | VGRKGGYFDY: nd, nd, nd (controls 4 of 9)
* GRTFDDYAMH | GIEWNSGSIGYADSVK | VGRHGGYFDY: nd, 3.79, nd (controls 6 of 9)
* TFTFDDYACH | GIIWNSGSIGYADSVK | VGRGGGYFDY: nd, 3.93, 5.29 (mean 4.61; controls 3 of 9)
* GFTFDDYAMH | GIYWNSGSIGYYDSVK | VGRGGCYFDY: nd, nd, nd (controls 1 of 9)
* GDTFDDYAMH | GIEWNSGSIGYADSVK | VGRGGHYFDY: nd, nd, nd (controls 1 of 9)
* GFTFDDYAMH | GIAWNSGSIGYADSVK | VGRGGGQFDY: nd, 5.47, 2.94 (mean 4.20; controls 1 of 9)
* GFTFDDYAMH | GIIWNSGSIGYADSVK | VGRGGWYFDY: nd, 5.06, 4.83 (mean 4.95; controls 1 of 9)
* GFTFDDYAMH | GITWNSGSIGYADSVS | VGRGGGYFFY: nd, nd, nd (controls 1 of 9)
* GFTFDDYAMT | GIQWNSGSIGYADSVK | VGRGGGYFDY: nd, nd, nd (controls 5 of 9)
* GLKFDDYAMH | GIFWNSGSIGYADSVK | VGRGGGYFDY: 4.95, 4.16, nd (mean 4.56; controls 4 of 9)
* GFTFDDYALH | GIRWNSGSIGYADSCK | VGRGGGYFDY: 5.43, nd, nd (controls 2 of 9)
* GFTFDPYAMH | GITWNSGSIGYANSVK | VGRGGGYFDY: 4.65, 4.66, nd (mean 4.66; controls 3 of 9)
* GFTFDDFAMH | GIYWNSGSIGYADSVK | VGRGGGYFDY: nd, nd, nd (controls 0 of 9)
* GFTTDDYAMH | GIIWNSGSIGYADSVA | VGRGGGYFDY: nd, nd, nd (controls 1 of 9)
* GFTFDNYAMH | GIEWNSGSIGYADSVW | VGRGGGYFDY: nd, nd, nd (controls 0 of 9)
* GFTFDDYAMH | GIVWNSGSIYHADSVK | VGRGGGYFDY: 3.08, nd, nd (controls 0 of 9)
* GFTFDDYAMH | GIPHNSGSIGYAQSVK | VGRGGGYFDY: nd, nd, nd (controls 0 of 9)
* GMTFDDYAMH | GIFWNSGSIGYADSVK | VDRGGGYFDY: nd, nd, nd (controls 0 of 9)
* GFTFDDYNMH | GIRVNSGSIGYADSVK | VGRGGGYFDY: 4.77, nd, nd (controls 1 of 9)
* GFDFDDYAMH | GICWNSGSIDYADSVK | VGRGGGYFDY: nd, 4.42, nd (controls 0 of 9)
* YFTFDDYAMH | GICWNSGSIGYADSVK | VGRSGGYFDY: 4.14, nd, nd (controls 0 of 9)
* GFTFDDYAMH | GIQWNSGSIGYADSAK | VGRGGGYFLY: nd, nd, nd (controls 0 of 9)
* GFTFDDYAMH | GIVWNSGSIGYAVSVK | VGRGGGYNDY: nd, nd, nd (controls 0 of 9)
* GFTFDDYAMH | GIYWNSGHIGNADSVK | VGRGGGYFDY: nd, nd, nd (controls 0 of 9)
* GFTFDDYAMH | GHFWNSGSCGYADSVK | VGRGGGYFDY: 5.91, 4.25, nd (mean 5.08; controls 3 of 9)
* GFTFDDYAMH | GIRWRSGSIGYADSQK | VGRGGGYFDY: 4.32, 4.19, nd (mean 4.25; controls 6 of 9)
* GLTFDDYAMH | GIGWNSGSIGYADSVK | VGRGGGYFDY: nd, nd, nd (controls 0 of 9)
* GFIFDCYAMH | GIGWNSGSIGYADSVK | VGRGGGYFDY: 3.88, nd, nd (controls 1 of 9)
* GFTPDDYAMH | GITWNKGSIGYADSVK | VGRGGGYFDY: nd, nd, nd (controls 0 of 9)
* GFYFDDYAMH | GILWHSGSIGYADSVK | VGRGGGYFDY: 4.09, 4.75, nd (mean 4.42; controls 3 of 9)
* GFTFDDYAMH | GIAWNSGSIGYADSVK | VGRGGGYFDY: 0.73, 0.55, 0.01 (mean 0.43; controls 7 of 9)
* GFTFDNYAMH | GIGWNSGSIGYADSVK | VGRGGGYGDY: 5.24, nd, 4.63 (mean 4.94; controls 2 of 9)
* GFTFDDYAMH | GIEWNDGSIGYADSVK | VGRGGGYFSY: nd, nd, nd (controls 1 of 9)
* GFTFDDYRMH | GIEWNSGSIGYADSVK | VGRGGGYFDY: 6.02, 5.18, 6.12 (mean 5.77; controls 9 of 9)
* GFRFDDYAAH | GIIWNSGSIGYADSVK | VGRGGGYFDY: 4.61, nd, nd (controls 2 of 9)
* GFTFDDYGMH | GINWNSGSIGYADSVK | VGRGGGYFDY: 4.57, 4.68, 5.16 (mean 4.80; controls 1 of 9)
* VFTFDDYAMH | GIHWNSLSIGYADSVK | VGRGGGYFDY: nd, nd, nd (controls 0 of 9)
* GFTFDDYIML | GIQWNSGSIGYADSVK | VGRGGGYFDY: nd, nd, nd (controls 0 of 9)
* GFTFDDYAMH | GIAWNSGQIGYADSVK | VGRGGGYFDY: 0.72, 0.76, 0.05 (mean 0.51; controls 6 of 9)
* GFTFDDYAMH | EICWNSGSIGYADSVK | VGRGGGYFDD: nd, nd, nd (controls 0 of 9)
* GHTFDTYAMH | GIGWNSGSIGYADSVK | VGRGGGYFDY: 4.75, 4.59, nd (mean 4.67; controls 1 of 9)
* GFTFDDYAMH | GIWWNSGSIGYADSVF | VGRGGGYFDT: 4.03, nd, nd (controls 2 of 9)

As a blank, each scFv also met three strains without target: over library AAYL51, 21% of these pairings were detected, typically at 4.54 and seldom below 3.26. For each scFv, signals with the empty controls are counted beside the result.